From patent publication US20200249194A9, “PROSTATE PROTEASE NANOSENSORS AND USES THEREOF” (Massachusetts Institute of Technology, priority 2017, published 2020)

System: serine hydrolase
Experiment: Activity-based probe (FP-TAMRA) labeling of fresh-frozen tissue
Parameters: species or system human

## fluorophosphonate-TAMRA
fresh-frozen human prostate cancer TMA
  probe labeling, prostate cancer vs normal control samples: labeled prostate cancer samples more than normal control samples
Sections of 22Rv1 xenograft tumor
  probe labeling of tissue sections: tumor cells were labeled
